{
  "source": "patent US20260201076A1",
  "about": "“CONJUGATES OF POLYSACCHARIDES AND HYDROPHOBIC COMPOUNDS AS EMULSION STABILIZERS” (BASF SE, priority 2022, published 2026)",
  "key": {"[1]": {"conditions": "sandy soil Lihof C15, ISO 17556, after 28 days"}, "[2]": {"conditions": "sandy soil Lihof C15, ISO 17556, after 90 days"}},
  "note": "Like-named read-outs stand apart in the source and are kept apart here.",
  "data": [
    {"substance": "dextran-graft-menthol [Example 6]", "values": [
      {"measurement": "biodegradation", "setting": "[1]", "result": 72, "unit": "%"},
      {"measurement": "biodegradation", "setting": "[2]", "result": 85, "unit": "%"}
    ]},
    {"substance": "dextran-graft-Citropol [Example 7]", "values": [
      {"measurement": "biodegradation", "setting": "[1]", "result": 59, "unit": "%"},
      {"measurement": "biodegradation", "setting": "[2]", "result": 75, "unit": "%"}
    ]}
  ]
}
